According to US4992418A, “Superactive human insulin analogue-[10-Aspartic Acid-B]Human Insulin” (Mount Sinai School of Medicine, priority 1987, dated 1991):

Conditions: reversed-phase HPLC, two chromatographic conditions

[10-Aspartic acid-B] human insulin
Polarity compared with natural insulin: more apolar molecule
